A word on the IC50: it is the point on the concentration scale where inhibition reaches its midpoint.

By UniProt entry, the sequences of proteins in these tests, tags left out.
UniProt P23975, whole entry, looked up: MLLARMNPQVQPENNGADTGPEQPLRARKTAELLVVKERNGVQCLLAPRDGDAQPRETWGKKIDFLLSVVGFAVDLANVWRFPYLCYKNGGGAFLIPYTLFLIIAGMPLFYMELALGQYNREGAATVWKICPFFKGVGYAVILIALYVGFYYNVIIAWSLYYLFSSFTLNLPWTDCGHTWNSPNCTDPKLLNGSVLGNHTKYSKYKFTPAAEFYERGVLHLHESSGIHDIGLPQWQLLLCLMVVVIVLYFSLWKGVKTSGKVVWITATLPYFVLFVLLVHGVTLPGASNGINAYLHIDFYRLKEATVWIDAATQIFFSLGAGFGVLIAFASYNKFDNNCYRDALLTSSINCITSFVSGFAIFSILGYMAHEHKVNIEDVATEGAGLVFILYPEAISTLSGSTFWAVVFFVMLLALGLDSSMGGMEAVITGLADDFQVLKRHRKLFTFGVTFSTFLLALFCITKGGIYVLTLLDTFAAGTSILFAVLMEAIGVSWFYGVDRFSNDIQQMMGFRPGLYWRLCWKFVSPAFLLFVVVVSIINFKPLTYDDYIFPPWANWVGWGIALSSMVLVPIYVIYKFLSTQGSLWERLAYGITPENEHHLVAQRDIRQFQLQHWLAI

In the experiment the target is Sodium-dependent noradrenaline transporter (Homo sapiens) (UniProt P23975). As to the kind of experiment: NET transport inhibition via TRACT readout – HEK293 JumpIn overexpressing cells, impedance, dose response (AID 1745860). Conditions: HEK293 JumpIn SLC6A2 OE.

Regarding `CC(NC(C)(C)C)C(=O)c1cccc(Cl)c1` (stereo unspecified), the half-inhibitory concentration (IC50) is 12.6 µM.
